{"source": "ChEMBL document CHEMBL1139960", "about": "(Bioorg Med Chem Lett, 2007)", "assay": "Antagonist activity at GABAC rho1 receptor expressed in Xenopus laevis oocytes assessed as reduction of GABA-induced chloride ion currents", "details": "oocyte", "data": [{"smiles": "CP(=O)(O)OCCN", "values": [{"measurement": "IC50", "value": 11.1, "unit": "µM"}]}]}
